## scFv variants of Ab-14 (heavy chain) against a SARS-CoV-2 spike peptide

Data: MIT Lincoln Laboratory AlphaSeq set, Li et al. 2023, doi:10.1038/s41467-023-39022-2, as distributed in FLAb.

Target: peptide PDVDLGDISGINAS, taken from heptad repeat 2 (HR2) of SARS-CoV-2 spike.

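The parent was found by panning a naive human phage display library on the peptide. The variants were designed computationally from a first round of random CDR variants and then made and measured. Several design methods are mixed in this list. The assay is AlphaSeq: two haploid yeast populations carry antibody and antigen on their surface. Pairs that bind mate more often; barcode pairs of the diploids are counted by sequencing. The ratio of observed to expected reads was calibrated, replicate by replicate, on BCL2-family standards whose Kd was known from biolayer interferometry. Mating was done six times.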

The variants keep the light chain, the linker and the frameworks of Ab-14 (scFv order VH, a (GGGGS)3 linker, VL).
VH: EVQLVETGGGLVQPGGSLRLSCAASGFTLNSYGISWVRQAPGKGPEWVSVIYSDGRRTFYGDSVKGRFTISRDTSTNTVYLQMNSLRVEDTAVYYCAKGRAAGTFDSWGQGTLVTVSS
VL: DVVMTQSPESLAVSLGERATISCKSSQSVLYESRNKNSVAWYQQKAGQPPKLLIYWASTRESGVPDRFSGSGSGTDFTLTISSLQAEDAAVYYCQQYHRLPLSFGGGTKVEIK

Each variant is given by its three heavy chain CDRs, as the data file delimits them; those of the parent are GFTLNSYGIS, VIYSDGRRTFYGDSVK, GRAAGTFDS. Variants here have at most six changes. The read-out is the apparent dissociation constant on a log10 scale (nM): the lower, the stronger. An entry "ND" has no value in the source: the pair was not observed among the diploids in that replicate. This suggests poor binding but is not conclusive. A sequence measured in both rounds can read differently, since the two assays cover different ranges.

With GFTLESYGIS | VIYADGRRTFYGDRVK | GRAAGTFKS the result was ND, ND, ND, ND, ND, ND. With GFDLNEYGIS | VIYADGRRTQYADSVK | GEAAGTFDS the result was -0.53, -0.34, -0.15, 0.04, 0.15, 0.31. Variant GFSLNSYGIS | VIYSDGRRTFYADSVK | GLVAGTFDS gave -0.16, 0.72, 0.58, 0.49, 0.70, 1.81. Variant GFTLNSYGIS | VIYSDGKRTFYGDDVK | GRAAGTFDS gave 1.46, 1.90, ND, 1.45, ND, 2.18. Variant GFDLNMYGIS | VIYSDGRRTFYGDSVK | GEAAGTFDK showed 2.07, 0.20, 0.91, 1.55, 0.01, 0.19. For GFTLNEYGIS | VIYSDGRRTFYDDSVK | GRTAGTFDS, the assay gave 0.22, -0.04, 0.09, -0.42, 0.09, 0.21. For GFDLNEYGIS | VIYADGRRTFYTDSVK | GTNAGTFDS, the assay gave -0.71, -0.51, -0.31, -0.34, -0.57, -0.51.

Variant GFGLNEYGIS | VIYSDGRRTFYGDSVK | GKTAGTFDS showed 0.45, 0.20, -0.64, 0.07, 0.50, 0.95. Variant GFSLNEYGIS | VIYSDGRRTFYGDDVK | GRQAGTFDS showed -0.41, -0.23, -0.59, -0.67, -0.62, -0.56. Variant GFSLNSYGIS | VIYSDGRRTFYDDSVK | GQLAGTFDS showed 1.45, 2.00, 0.63, 1.54, 2.46, 0.75. Variant GFTLNSYGIS | VIYSDGKRTFYSDSVK | GQTAGTFDS gave -0.23, -0.29, 0.49, 0.99, -0.06, -0.14. For GFTLNQYGIS | VIYSDGTRTFYSDSVK | GRAAGFFDS, the assay gave ND, ND, ND, ND, 2.83, ND. Variant GFSLNSYGIS | VIYSDGRRTFYSDSVK | GQAAGTFDA showed 0.49, 0.19, -0.14, 0.32, 0.15, 0.63. With GFSLNHYGIS | VIYSDGRRTFYGDSVK | GRTAGTFDS the result was 0.92, 0.90, 0.52, 0.41, 0.71, 0.80.

Variant GFTLNSYGIS | VIYSDGLRTFYGDSVK | GRPIGRFDS gave ND, ND, ND, ND, ND, ND. With GFHLNSYGIS | VIYSDGRRTFYADSVK | GQAAGTFDS the result was 1.60, 0.58, 1.13, 0.78, 0.43, 1.35. Variant GIELNSYGIS | VIYSDGRRTFYKDSVK | GRAPGTFKS showed ND, ND, ND, ND, ND, ND. Variant GFTLNDYGIS | VIYSDGRRTMYDDSVK | GRAAGTFDS showed 1.17, 1.47, 1.41, 0.92, 0.34, 1.14. With GFWLNEYGIS | VIYSDGRRTFYGDSVK | GKTAGTFDT the result was ND, ND, ND, ND, ND, ND. With GFTLNSYGIS | VIYSDGERTFYGDSVK | GRAAGTFST the result was ND, 2.20, ND, ND, ND, ND. For GFTLNSYGIS | VIYSDGRRVFYGDSVK | GRVAGTFDS, the assay gave 0.40, 1.23, 1.21, 1.16, ND, 0.83.

With GFTLNSYGIS | VIYSDGRRTFYGDSVR | GRAKITFDS the result was ND, ND, ND, ND, ND, ND. Variant GFTLNSYGIS | VIYSDGRRAFYGDSVK | GREAGTFDS showed ND, ND, ND, -0.63, -1.44, ND. Variant GFTLNEYGIS | VIYSDGRRTFYSDSVK | GRAGGTFDT showed ND, -0.55, ND, ND, 0.34, ND. Variant GFSLNSYGIS | VIYSDGRRTFYGDSVK | GRNAGTFDT gave 0.31, -0.17, -0.15, -0.32, -0.12, 0.00. With GFSLNEYGIS | VIYSDGRRTFYGDAVK | GRAAGTFDI the result was 1.02, 0.39, 0.63, 0.81, 0.77, 1.10. Variant GFTHDSYGIS | VIYSDGRRTFYGDSVK | GRAAGTAIS gave ND, ND, ND, ND, ND, ND. Variant GFTLNSYGIS | VIYSDGRRTFYGDSVK | CEAAGTFDS showed ND, ND, ND, ND, ND, 1.45.

Variant GFDLNSYGIS | VIYSDGRRTFYGDSVK | GRTAGSFMS gave ND, ND, ND, ND, ND, ND. With GFELNSYGIS | VIYADGRRTFYGDSVK | GRAAGTNDS the result was ND, ND, ND, ND, ND, ND. With GFTLDSYGIS | VIYSDGYRTFYGDSVK | WDAAGTFDI the result was ND, ND, ND, ND, ND, ND. For GFTLDSYGIS | VIYSDGRRTFYADSVK | GRAAGTFDS, the assay gave 0.09, 0.35, 0.03, 0.16, 0.32, 0.47; -0.16, ND, -0.57, ND, 1.75, 0.54. With GFTLNSYGIS | VIYSDGRRTFYGDSVK | GFEAGTFDS the result was 0.03, 0.66, 0.48, 1.02, 1.19, 2.33. Variant GFVLNEYGIS | VIYADGRRTFYGDSVK | GRAAGTFDS showed 0.65, -0.09, -0.20, -0.33, 0.25, 0.06. With GFTLNSYGIS | VDYSDGRRTFYGDSVP | GRAAGTFDS the result was ND, ND, ND, ND, ND, ND.

For GFDLNEYGIS | VIYSDGRRTFYADSVK | GRFAGTFDS, the assay gave 0.13, -0.15, -0.06, -0.43, -0.21, -0.22. For GFSLNSYGIS | VIYSDGRRTFYGDSVK | GINAGTFDT, the assay gave 0.07, 0.32, 0.25, -0.15, 0.30, 1.11. For GFTLDSYGIS | VIYSDGRRTFYSDSVK | GRAGGTFDV, the assay gave 1.25, 1.54, 1.17, 1.34, 0.89, 2.59. Variant GFTLNSYGIH | VIYSDGRRTFYGDEVK | GRAAGTFDS gave ND, 2.05, 1.71, ND, ND, ND. For GFDLNSYGIS | VIYSDGRRTFYGDSVK | GNAAGTFDD, the assay gave 0.84, 1.75, 0.93, 1.74, 2.02, 1.14. For GFSLNSYGIS | VIYSDGRRTFYMDSVK | GQAAGTFDS, the assay gave 1.21, 1.88, 2.18, 0.85, ND, 1.69. For GFTLNSYGIS | SIYSDGRRTFYGDSVK | GRWAGTFDS, the assay gave ND, ND, ND, 2.46, ND, ND.

A selection of 5 entries from above:

Variant GFDLNEYGIS | VIYSDGRRTFYADSVK | GRFAGTFDS showed 0.13, -0.15, -0.06, -0.43, -0.21, -0.22.
Variant GFWLNEYGIS | VIYSDGRRTFYGDSVK | GKTAGTFDT showed ND, ND, ND, ND, ND, ND.
Variant GFTLNEYGIS | VIYSDGRRTFYDDSVK | GRTAGTFDS showed 0.22, -0.04, 0.09, -0.42, 0.09, 0.21.
Variant GIELNSYGIS | VIYSDGRRTFYKDSVK | GRAPGTFKS showed ND, ND, ND, ND, ND, ND.
Variant GFVLNEYGIS | VIYADGRRTFYGDSVK | GRAAGTFDS showed 0.65, -0.09, -0.20, -0.33, 0.25, 0.06.

Of ten entries with the parent sequence, four were seen in most replicates (averages 0.34 to 2.37), three in one and three in none, so single entries are noisy. Some sequences occur more than once in the pool; their replicates are listed entry by entry, parted by semicolons. The authors averaged sequences with at least three values out of six and counted those with two or fewer as poor binders. As a blank, each scFv also met three strains without target: over all heavy chain designs, 1% of these pairings were detected, typically at 2.08 and seldom below 0.84.